In one experiment the target is PDE 10a (Homo sapiens, UniProt Q9Y233). In words: In vitro enzyme inhibition assay (3H-cAMP scintillation proximity assay). The note with it: full-length recombinant PDE 10a, Sf9 cell lysate. Here is the method: Full-length recombinant PDE 10a was expressed in Sf9 insect cells (Invitrogen, Carlsbad, Calif., U.S.A.) using the Bac-to-Bac™ Baculovirus Expression System (Life Technologies, Gaithersburg, Md., U.S.A.). 48 hours post infection, cells were harvested and resuspended in 20 mL (per 1 L culture) Lysis Buffer (50 mM Tris-HCl, pH 7.4, 50 mM NaCl, 1 mM MgCl2, 1.5 mM EDTA, 10% glycerol plus 20 μL Protease Inhibitor Cocktail Set III [CalBiochem, La Jolla, Calif., U.S.A.]). Cells were sonicated at 4° C. for 1 minute and centrifuged at 10,000 RPM for 30 minutes at 4° C. Supernatant was removed and stored at −20° C. for activity assays.
The test compounds were serially diluted in DMSO using two-fold dilutions to stock concentrations ranging typically from 200 μM to 1.6 μM (final concentrations in the assay range from 4 μM to 0.032 μM). 96-well assay isoplates (Wallac Inc., Atlanta, Ga., U.S.A.) were loaded with 50 μL dilution buffer per well (dilution buffer: 50 mM Tris/HCl pH 7.5, 8.3 mM MgCl2, 1.7 mM EDTA, 0.2% BSA). 2 μL of the serially diluted individual test compounds were added to individual wells,m followed by 25 μL of a 1:25,000 dilution of crude recombinant PDE 10a-containing Sf9 cell lysate (diluted in dilution buffer described above). The enzymatic assay was initiated by addition of 25 μL (0.025 μCi) ^3H cyclic AMP tracer [5′,8-^3H] adenosine 3′,5′-cyclic phosphate (Amersham Pharmacia Biotech., Piscataway, N.J., U.S.A.) that was diluted 1:1000 in assay buffer (assay buffer: 50 mM Tris/HCl pH 7.5, 8.3 mM MgCl2, 1.7 mM EDTA). Reactions were incubated at room temperature for 60 minutes and terminated by addition of 25 μL of 18 mg/mL Yttrium Scintillation Proximity Beads (Amersham Pharmacia Biotech., Piscataway, N.J., U.S.A.). Plates were sealed and incubated at room temperature for 60 minutes. Plates were read for 30 seconds/well using a Microbeta counter (Wallac Inc., Atlanta, Ga., U.S.A.). The IC50 values were determined by plotting compound concentration versus percent inhibition.

Amino acid sequences for entries named in this document (tags omitted). Residues count along the entry.
UniProt Q9Y233, 1-779 isoform 1: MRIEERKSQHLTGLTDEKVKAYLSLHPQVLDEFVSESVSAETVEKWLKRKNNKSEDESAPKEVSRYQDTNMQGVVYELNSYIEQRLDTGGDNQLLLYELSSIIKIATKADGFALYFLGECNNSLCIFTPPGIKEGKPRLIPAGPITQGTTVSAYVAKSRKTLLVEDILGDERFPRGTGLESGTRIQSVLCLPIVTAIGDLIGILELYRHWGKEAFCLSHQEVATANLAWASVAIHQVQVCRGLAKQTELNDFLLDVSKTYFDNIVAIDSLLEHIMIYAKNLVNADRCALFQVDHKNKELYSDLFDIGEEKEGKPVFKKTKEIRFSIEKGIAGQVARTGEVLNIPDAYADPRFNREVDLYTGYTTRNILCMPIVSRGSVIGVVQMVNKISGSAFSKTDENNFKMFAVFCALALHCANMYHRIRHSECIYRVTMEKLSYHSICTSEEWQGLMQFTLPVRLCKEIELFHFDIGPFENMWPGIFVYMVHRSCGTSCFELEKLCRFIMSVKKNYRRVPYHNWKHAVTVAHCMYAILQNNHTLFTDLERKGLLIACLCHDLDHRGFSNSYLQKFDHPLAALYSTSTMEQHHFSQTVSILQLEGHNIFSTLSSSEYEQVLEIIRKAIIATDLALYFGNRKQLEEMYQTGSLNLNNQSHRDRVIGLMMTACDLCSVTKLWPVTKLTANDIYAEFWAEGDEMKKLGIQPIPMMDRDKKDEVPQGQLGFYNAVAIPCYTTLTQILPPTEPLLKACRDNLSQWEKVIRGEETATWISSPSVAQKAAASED

Experiment [1] deals with MDA-MB-231 human breast carcinoma cells. In words: In vitro proliferation inhibition assay (LDH activity, 72 hours). The conditions noted are these: MDA-MB-231 cells. Here is the method:
MDA-MB-231 human breast carcinoma cells (ATCC # HTB26) were cultured in standard growth medium (DMEM), supplemented with 10% heat-inactivated FBS, 10 mM HEPES, 2 mM glutamine, 100 U/mL penicillin, and 100 μg/mL streptomycin) at 37° C. in 5% CO2 (vol/vol) in a humidified incubator. Cells were plated at a density of 3000 cells per well in 100 μL growth medium in a 96 well culture dish. 24 hours after plating, LDH activity was determined using the Cytotox 96 Non-radioactive Cytotoxicity Kit (Promega, Madison, Wis., U.S.A.) to yield T0h LDH values. Briefly, cells were lysed with the addition of 200 μL of Lysis Buffer (included in the Promega Kit) and lysates were further diluted 1:50 in Lysis Buffer. 50 μL of diluted cell lysate were transferred to a fresh 96 well culture plate. The assay was initiated with the addition of 50 μL of substrate per well. Color development was allowed to proceed for 10-15 minutes. The assay was terminated with the addition of 50 μL of Stop Solution (included in Promega kit). Optical densities were determined spectrophotometrically at 490 nm in a 96 well plate reader (SpectraMax 250, Molecular Devices, Sunnyvale, Calif., U.S.A.).
Test compounds were dissolved in 100% DMSO to prepare 10 mM stocks. Stocks were further diluted 1:250 in growth medium to yield working stocks of 40 μM test compound in 0.4% DMSO. Test compounds were serially diluted in growth medium containing 0.4% DMSO to maintain constant DMSO concentrations for all wells. 50 μL of fresh growth medium and 50 μL of diluted test compound were added to each culture well to give a final volume of 200 μL. The cells with and without individual test compounds were incubated for 72 hours at which time LDH activity was measured to yield T72h values. Optionally, the IC50 values can be determined with a least squares analysis program using compound concentration versus percent inhibition. % Inhibition=[1−(T72h test−T0h)/(T72h ctrl−T0h)]×100 wherein • T72h test=LDH activity at 72 hours in the presence of test compound, • T72h ctrl=LDH activity at 72 hours in the absence of test compound and • T0h=LDH activity at Time Zero

As for `CCOC(=O)c1c(-c2ccc(O)c(C)c2)c(C)n2c1-c1cc(OC)c(OC)cc1CC2`, on PDE 10a (Examples of part a (Table 1a)), the IC50 stood at 46 nM. Also, the “% inhibition at a concentration of 10 μM” value in experiment [1] (Examples of part a (Table 2a)) came out at 96%.
With `COC(=O)c1c(-c2cc(C)c(O)c(C)c2)c(C)n2c1-c1ccc(OC)c(OC)c1CC2`, the IC50 on PDE 10a (Examples of part b (Table 1b)) turned out to be 34 nM. For the same compound, in experiment [1] (Examples of part b (Table 2b)), the “% inhibition at a concentration of 10 μM” value was 87%.
Regarding `CCOC(=O)c1c(-c2cc(F)cc(F)c2)c(C)n2c1-c1cc(OC)c(OC)cc1CC2`, the IC50 on PDE 10a (Examples of part a (Table 1a)) was found to be 490 nM. The “% inhibition at a concentration of 10 μM” value in experiment [1] (Examples of part a (Table 2a)) is listed as 94%.
Taken in the same sequence, the figures for `COC(=O)c1c(-c2ccc(O)c(Cl)c2)c(C)n2c1-c1cc(OC)c(OC)cc1CC2` were 56 nM and 97%.
Take `CCOC(=O)c1c(-c2ccc(F)cc2)c(C)n2c1-c1cc(OCC)c(OC)cc1CC2`: on PDE 10a (Examples of part b (Table 1b)), the IC50 was 270 nM. The “% inhibition at a concentration of 10 μM” value in experiment [1] (Examples of part b (Table 2b)) was 58%.
Take `COC(=O)c1c(-c2ccc(O)cc2)c(C)n2c1-c1cc(OC)c(OC)cc1CC2`: on PDE 10a (Examples of part a (Table 1a)), the IC50 is 62 nM. In addition, the “% inhibition at a concentration of 10 μM” value in experiment [1] (Examples of part a (Table 2a)) is reported as 92%.
Take `CCOC(=O)c1c(-c2cc(OC)c(OC)c(OC)c2)c(C)n2c1-c1c(cccc1OC)CC2`: the IC50 at PDE 10a (Examples of part b (Table 1b)) was 32 nM. Also, the “% inhibition at a concentration of 10 μM” value in experiment [1] (Examples of part b (Table 2b)) is on record as 86%.
With `CCOC(=O)c1c(-c2ccc(O)cc2OC)c(C)n2c1-c1cc(OC)c(OC)cc1CC2`, the IC50 on PDE 10a (Examples of part a (Table 1a)) came out at 96 nM. Also, the “% inhibition at a concentration of 10 μM” value in experiment [1] (Examples of part a (Table 2a)) came to 88%.
As for `CCOC(=O)c1c(-c2ccc(O)c(Cl)c2)c(C)n2c1-c1cc(OC)c(OC)cc1CC2`, on PDE 10a (Examples of part a (Table 1a)), the IC50 is 81 nM. For the same compound, the “% inhibition at a concentration of 10 μM” value in experiment [1] (Examples of part a (Table 2a)) amounted to 96%.

Source of the values: patent publication US6930114B2, “Pyrrolo (2.1a)dihydroisoquinolines and their use as phosphodiesterase 10a inhibitors” (Bayer Pharmaceuticals Corporation, priority 2000, dated 2005).
